Results reported in PubChem BioAssay AID504374 (National Center for Advancing Translational Sciences (NCATS), 2011).
This is a selection; strong and weak results do not stand in their true shares. Results filed as inconclusive are left out. Activity calls are given as the source filed them. Calls come from the whole dose curve; as a rule, active = well fitted inhibition curve with a large enough effect; inconclusive = small, poorly fitted or top-dose-only effect, or effect the other way; inactive = flat fitted curve, though single readings scatter.

By UniProt entry, the sequences of proteins in these tests, tags left out.
UniProt Q01196, whole entry, looked up: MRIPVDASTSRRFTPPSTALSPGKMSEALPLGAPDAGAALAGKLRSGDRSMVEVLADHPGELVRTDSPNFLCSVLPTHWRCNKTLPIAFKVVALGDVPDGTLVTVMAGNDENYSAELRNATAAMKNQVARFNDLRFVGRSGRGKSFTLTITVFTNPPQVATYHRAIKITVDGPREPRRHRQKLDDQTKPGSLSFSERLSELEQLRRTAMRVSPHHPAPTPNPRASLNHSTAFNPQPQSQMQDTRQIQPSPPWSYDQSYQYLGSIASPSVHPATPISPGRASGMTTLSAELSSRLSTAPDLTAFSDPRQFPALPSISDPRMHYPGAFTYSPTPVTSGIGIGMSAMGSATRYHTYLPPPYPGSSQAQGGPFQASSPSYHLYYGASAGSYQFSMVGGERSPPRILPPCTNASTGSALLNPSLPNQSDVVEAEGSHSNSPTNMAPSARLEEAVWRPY
UniProt Q13951, whole entry, looked up: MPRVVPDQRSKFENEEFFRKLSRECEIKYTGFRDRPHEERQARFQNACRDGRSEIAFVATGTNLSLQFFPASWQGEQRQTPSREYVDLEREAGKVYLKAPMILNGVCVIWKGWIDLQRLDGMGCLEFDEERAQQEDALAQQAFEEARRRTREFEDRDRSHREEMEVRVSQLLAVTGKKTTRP

biological target: Runt-related transcription factor 1 (Homo sapiens) + Core-binding factor subunit beta (Homo sapiens) (UniProt Q01196+Q13951); experiment: qHTS Assay for Compounds Blocking the Interaction Between CBF-beta and RUNX1 for the Treatment of Acute Myeloid Leukemia: Hit Validation; details: AlphaScreen CBFb-His/RUNX1-biotin binding; note: nearly all actives have a fitted effect of over 60% in size
Excerpt: NIH Chemical Genomics Center [NCGC]
NIH Molecular Libraries Probe Production centers Network [MLPCN]
Assay Submitter (PI): Paul Liu
Core Binding Factor (CBF) abnormalities are associated with 20-25% of all acute myeloid leukemias (AML), of which 5-10% are further sub classified as acute myelomonocytic leukemia with eosinophilia, also known as M4Eo in the FAB classification scheme. This subtype of leukemia is usually associated with chromosome 16 inversion (p13:q22). Chromosome 16 inversion results in formation of the fusion oncogene CBFB-MYH11, which encodes the fusion protein CBF-beta-SMMHC.
It has been hypothesized that the interference of CBF-beta and RUNX1 binding could have therapeutic implications for patients with CBF mediated leukemias. We developed a CBF-beta and RUNX1 binding assay in AlphaScreenTM format and optimized it for high throughput screening to search for inhibitors. The goal of this project is to screen MLPCN's compound collection (MLSMR) for identifying the inhibitors of the interaction between CBF-beta and RUNX1 proteins as research probes. If these probes work well in the animal models, the ultimate goal of this project is to development a new drug treatment for this disease. […]
(6) Detection, Excitation=365 nm Emission=440 nm, Envision reader in AlphaScreenTM mode […]
Potency is the fitted concentration of half-maximal effect.

| Compound | Potency |
| --- | --- |
| O=C(O)COCCN1CCN(C(c2ccccc2)c2ccc(Cl)cc2)CC1 (stereo unspecified) | active: 791 nM |
